# Yeast mating assay 2: variants of the scFv Ab-95

Data: MIT Lincoln Laboratory AlphaSeq set, Engelhart et al. 2022, doi:10.1038/s41597-022-01779-4, as distributed in FLAb.

Antigen: PDVDLGDISGINAS, a 14-residue peptide of the SARS-CoV-2 spike HR2 region.

Parent: Ab-95, a human scFv built as VH, the linker GGGGSGGGGSGGGGS, VL. Only the CDRs of the light chain vary.
VH: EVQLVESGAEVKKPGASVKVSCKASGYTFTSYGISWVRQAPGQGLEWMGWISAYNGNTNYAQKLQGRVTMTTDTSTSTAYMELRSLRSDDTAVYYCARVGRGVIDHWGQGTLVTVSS
VL: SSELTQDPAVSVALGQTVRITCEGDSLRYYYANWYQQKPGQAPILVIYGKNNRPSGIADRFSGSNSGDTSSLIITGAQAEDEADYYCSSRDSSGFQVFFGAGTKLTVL

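AAYL52 was designed without a model: most single CDR substitutions and a random sample of double and triple ones. Affinity was read by AlphaSeq, a pooled yeast mating assay with surface-displayed partners. After mating in shaken culture at 30 °C for 16 h, diploids were selected and their barcode pairs sequenced. The ratio of observed to expected reads was calibrated, replicate by replicate, on BCL2-family standards whose Kd was known from biolayer interferometry. Mating was done three times.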

The parent's light chain CDRs are EGDSLRYYYAN, GKNNRPS, SSRDSSGFQVF; each variant's own CDRs replace them letter for letter.
Values are log10 of the apparent Kd in nM; lower means stronger binding.
A pair that was not seen in that replicate is written "ND"; this usually means weak binding, but a binder can also be missed.
Three control strains display no target. For library AAYL52, 28% of the pairings with them gave a signal, with a median of 3.91 and one signal in twenty below 2.90, so weak values seen in few replicates may be background. Also given: how often the same scFv was detected with the empty control strains, with their mean in brackets.

CDR-L1,CDR-L2,CDR-L3,log10 Kd (nM) by replicate,signal with controls
EGDSMRYYYAN,GKNNRPS,SSRDDSGFCVF,ND / 3.70 / ND,2 of 9 (4.14)
EWDSLRYIYAN,GKNNRPK,SSRDSSGFQVF,2.58 / 2.82 / 2.32,1 of 9 (3.42)
EGDTLRGIYAN,GKNNRPS,SSRDSSGFQVF,1.78 / 1.55 / 1.01,4 of 9 (4.05)
EGDSLRYYYAN,GVNNRPS,SSMDSPGFQVF,2.55 / 2.73 / 3.39,5 of 9 (3.76)
EGDSLFQYYAN,GKNNRPP,SSRDSSGFQVF,2.96 / 2.79 / 2.69,3 of 9 (4.20)
EGDSLRRYYAN,SKNNRPS,SIRDSSGFQVF,ND / ND / ND,0 of 9
EGDRLRYYYYN,GKNNRPS,SSRDSSGFQVF,ND / 4.07 / 3.37,2 of 9 (4.73)
ENDSLRYYYAN,GKNNRPS,STRWSSGFQVF,ND / ND / ND,2 of 9 (4.13)
EGKSLRYYYAN,GKNNRMS,SSRDSSNFQVF,2.37 / 3.05 / 2.17,3 of 9 (3.81)
EGTSLGYYYAN,GKNNRPS,SSRDSSGFQVF,1.86 / 1.93 / 1.29,1 of 9 (4.86)
EYDSLRYYYAN,GKNNRPS,FSWDSSGFQVF,ND / ND / 3.91,2 of 9 (3.34)
EGDSLRYYYAN,GKRNRPS,SSRDSSGCQTF,4.72 / 3.66 / 4.30,5 of 9 (4.29)
IGDSLRYYYAK,GKNNRPS,SSRDSSGFQVF,4.22 / 3.09 / 2.42,5 of 9 (3.76)
EGDSLRYYYAN,GKNQRPS,SSMDSFGFQVF,2.57 / 2.76 / 2.81,2 of 9 (4.46)
EGDSLRYYYAN,GKNNRPS,SSRVSSGFQNF,ND / ND / ND,3 of 9 (4.36)
EGASLRYYYAN,GKNNRPS,HSRDSSGFIVF,3.82 / 5.52 / ND,3 of 9 (3.81)
VGDSLRYYYAT,GKNNRPS,SSRDSSGFQIF,3.74 / ND / ND,6 of 9 (4.03)
EGDSLRYYYAN,KQNNRPS,SSRDSSGFQVF,2.82 / 3.47 / 2.83,1 of 9 (4.78)
EGDSLRYYYAN,GKNNRMS,TSRDQSGFQVF,5.55 / 3.13 / ND,3 of 9 (3.73)
EGDSLRYYYAN,PKNNRPS,SSRDSSGCQYF,ND / 4.31 / ND,1 of 9 (4.30)
EGDSLRYYYAM,GKNNRPS,SSRDSSGWQVF,4.05 / ND / ND,2 of 9 (3.79)
EGDSLRYYYAN,GKDNRPS,SSRTSSGFQLF,2.35 / 2.39 / 2.13,1 of 9 (5.59)
EGDSLRYYYAW,GKNNRPP,VSRDSSGFQVF,3.51 / 4.61 / ND,5 of 9 (4.21)
EIDSLRCYYAN,EKNNRPS,SSRDSSGFQVF,ND / 4.55 / ND,3 of 9 (4.46)
EGDSLRYYYAC,GKNNAPN,SSRDSSGFQVF,3.79 / ND / ND,4 of 9 (3.81)
EGDSLNYYAAN,GKNNRPM,SSRDSSGFQVF,1.65 / 1.38 / 0.94,5 of 9 (3.86)
EDDPLRYYHAN,GKNNRPS,SSRDSSGFQVF,ND / 4.92 / ND,4 of 9 (4.39)
EGESLRYYYAS,LKNNRPS,SSRDSSGFQVF,5.07 / ND / ND,2 of 9 (4.55)
EGDSIRYYYAN,GKNNRPS,SSRDSSNFQFF,3.65 / ND / ND,3 of 9 (3.93)
EGDSLRYYYAN,GKNNRPS,NSDDTSGFQVF,2.77 / 3.58 / 2.71,0 of 9
EGDSLRWYYAN,GKNNRPS,SSRDSSGFNHF,4.00 / ND / 4.22,3 of 9 (4.06)
EGDSLRYYYAN,GKNNRPS,CSQDLSGFQVF,ND / ND / ND,4 of 9 (4.26)
EGDSLRYYYQN,GKNNRPS,SSRDSSGFQVF,2.87 / 2.85 / 2.96,2 of 9 (4.02)
EGDVLRYYYAN,GKNNRPI,SSRDVSGFQVF,2.35 / 5.45 / 3.00,2 of 9 (4.57)
EGDSLRYFYIN,GKNNRPS,SSRDSSGFQKF,ND / ND / ND,5 of 9 (4.06)

Again, the first 3 entries without any signal:

CDR-L1,CDR-L2,CDR-L3,log10 Kd (nM) by replicate,signal with controls
EGDSLRRYYAN,SKNNRPS,SIRDSSGFQVF,ND / ND / ND,0 of 9
ENDSLRYYYAN,GKNNRPS,STRWSSGFQVF,ND / ND / ND,2 of 9 (4.13)
EGDSLRYYYAN,GKNNRPS,SSRVSSGFQNF,ND / ND / ND,3 of 9 (4.36)